Reference: PubChem BioAssay AID1276 (Columbia University Molecular Screening Center, 2008)
The list shows a part of the results, in another mix than the full data. The source made the active and inactive calls.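 Rule for the calls: active = activation above a set limit, based on mean plus 3 SD of controls (cut at about 140% in these data); inconclusive = one replicate above the limit, the other below; inactive = the rest.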

Assay: activators of APP 5'UTR luciferase reporter, primary screen, SH-SY5Y cells (AID 1276)
Settings: SH-SY5Y APP 5'UTR luciferase reporter, luminescence; at 2 µM; active compounds read high; zero percent = DMSO vehicle wells

Row | SMILES | activation
1 | CCOC(=O)c1ccc(NP(C)(=O)Oc2cc(C)cc(C)c2)cc1 (stereo not drawn) | inactive: 2.06%
2 | Cc1cc(C)cc(OP(C)(=O)Nc2ccc(C)cc2C)c1 (stereo not drawn) | inactive: 6.87%
3 | Cc1ccc(C)c(NP(C)(=O)Oc2ccccc2)c1 (stereo not drawn) | inactive: 1.74%
4 | CP(=O)(Nc1cccc(Br)c1)Oc1ccccc1 (stereo not drawn) | inactive: -21.7%
5 | Cc1cc(C)cc(OP(C)(=O)Nc2ccccn2)c1 (stereo not drawn) | inactive: 0.04%
6 | CC1=NCCc2c1[nH]c1ccccc21.O=[N+]([O-])c1cc([N+](=O)[O-])c(O)c([N+](=O)[O-])c1 | inactive: 5.97%
7 | CN1CCCCC1COC(=O)C1(O)c2ccccc2CCc2ccccc21 (stereo not drawn) | inactive: -8.7%
8 | COc1ccccc1OP(C)(=O)Nc1c(C)cccc1C (stereo not drawn) | inactive: -13.5%
9 | CP(=O)(Nc1ccc(SC(F)(F)F)cc1)Oc1ccccc1 (stereo not drawn) | inactive: 19.6%
10 | CCCOc1ccc(NP(C)(=O)Oc2ccc(Cl)cc2)cc1 (stereo not drawn) | inactive: 25.1%
11 | O=[N+]([O-])c1cc([N+](=O)[O-])c(-n2nnc3ccccc32)c([N+](=O)[O-])c1 | inactive: -36%
12 | Cc1nc2ccc3ccccc3c2s1.O=[N+]([O-])c1cc([N+](=O)[O-])c(O)c([N+](=O)[O-])c1 | inactive: -1.88%
13 | Cc1cccc(C)c1OP(C)(=O)Nc1ccc(SC(F)(F)F)cc1 (stereo not drawn) | inactive: 4.95%
14 | CP(=O)(Oc1ccccc1)OC(c1ccccc1)C(F)(F)F (stereo not drawn) | inactive: 13.5%
15 | CP(=O)(NC(=O)Nc1ccccc1)Oc1ccccc1 (stereo not drawn) | inactive: 10.1%
16 | Cc1cc(C)cc(OP(C)(=O)Nc2ccc(SC(F)(F)F)cc2)c1 (stereo not drawn) | inactive: 8.39%
17 | CCOC(=O)c1ccc(NP(C)(=O)Oc2ccc(OC)cc2)cc1 (stereo not drawn) | inactive: -5.88%
18 | CCOP(C)(=S)SCC(=O)NC(C)C(=O)O (stereo not drawn) | inactive: -3.66%
19 | CP(=O)(Nc1ccccn1)Oc1ccc(Cl)cc1 (stereo not drawn) | inactive: -9.58%
20 | CP(=S)(Nn1cnnc1)Oc1ccccc1 (stereo not drawn) | inactive: 3.69%
21 | CP(=O)(Nc1ccccc1Br)Oc1ccccc1 (stereo not drawn) | inactive: -2.19%
22 | COc1ccccc1OP(C)(=O)Nc1ccccc1 (stereo not drawn) | inactive: -1.81%
23 | O=[N+]([O-])c1ccc2c(c1)C=Nc1ccccc1O2 | inactive: 2.05%

Row | SMILES | activation
24 | CC(C)(C)c1ccc(OP(C)(=O)Nc2ccc(SC(F)(F)F)cc2)cc1 (stereo not drawn) | inactive: 5.58%
25 | Cc1cccc(C)c1OP(C)(N)=O (stereo not drawn) | inactive: 10.6%
26 | COc1ccccc1OP(C)(=O)Nc1ccc(C)cc1 (stereo not drawn) | inactive: 15.2%
27 | Cc1ccc(NP(C)(=O)Oc2ccccc2)c(C)c1 (stereo not drawn) | inactive: -12%
28 | CCOC(=O)c1ccc(NP(C)(=O)Oc2ccccc2)cc1 (stereo not drawn) | inactive: 2.63%
29 | Cc1cc(C)cc(OP(C)(N)=O)c1 (stereo not drawn) | inactive: -15.6%
30 | COc1ccccc1OP(C)(=O)Nc1cc(Cl)ccc1C (stereo not drawn) | inactive: 9.54%
31 | COc1ccc(OP(C)(=O)Nc2cccc(F)c2)cc1 (stereo not drawn) | inactive: 7.41%
32 | CCN(CC)CCCOC(=O)C(O)(c1ccccc1)c1ccccc1 | inactive: 5.82%
33 | COc1ccc(OP(C)(=O)Nc2ccccn2)cc1 (stereo not drawn) | inactive: -2.38%
34 | CN(C)CCOC(=O)C(O)(c1ccccc1)C1CCCC1 (stereo not drawn) | inactive: -9.15%
35 | Cc1c(NP(C)(=O)Oc2ccc(C(C)C)cc2)c(=O)n(-c2ccccc2)n1C (stereo not drawn) | inactive: 5.54%
36 | CP(=O)(Nc1ccccn1)Oc1ccccc1 (stereo not drawn) | inactive: -8.11%
37 | COc1ccccc1OP(C)(=O)Nc1ccc(C)cc1C (stereo not drawn) | inactive: 10.3%
38 | CCc1ccc(OP(C)(=O)O)cc1 | inactive: -7.13%
39 | Cc1cc(C)cc(OP(C)(=O)Nc2cccc(C(F)(F)F)c2)c1 (stereo not drawn) | inactive: -15.2%
40 | COc1ccccc1OP(C)(=O)Nc1ccc(C)c(C)c1 (stereo not drawn) | inactive: 21.4%
41 | COc1ccc(OP(C)(=O)Nc2ccccc2Br)cc1 (stereo not drawn) | inactive: 2.03%
42 | Cc1nc2ccc3ccccc3c2o1.O=[N+]([O-])c1cc([N+](=O)[O-])c(O)c([N+](=O)[O-])c1 | inactive: 6.65%
43 | CP(=O)(OCCOc1ccccc1)OCCOc1ccccc1 | inactive: -7.07%
44 | CP(=O)(Nc1ccc(Cl)cc1Cl)Oc1ccccc1 (stereo not drawn) | inactive: 2.4%
45 | CCOC(=O)c1ccc(NP(C)(=O)Oc2ccc(Cl)cc2)cc1 (stereo not drawn) | inactive: 3.78%
46 | CP(=O)(OC12CC3CC(CC(C3)C1)C2)OC12CC3CC(CC(C3)C1)C2 | inactive: -10.3%

Row | SMILES | activation
47 | CCN(CC)CC(O)COC(=O)C(O)(c1ccccc1)C1CCCCC1 (stereo not drawn) | inactive: -1.84%
48 | COc1ccc(OP(C)(=O)Nc2ccc(Br)cc2)cc1 (stereo not drawn) | inactive: 10.9%
49 | COc1ccccc1OP(C)(=O)Nc1c(C)n(C)n(-c2ccccc2)c1=O (stereo not drawn) | inactive: 4.15%
50 | CP(=O)(Oc1ccccc1)N1CCOC1=O (stereo not drawn) | inactive: 1.7%
51 | CCc1ccc(OP(C)(=O)Nc2cccnc2)cc1 (stereo not drawn) | inactive: 14.2%
52 | CC(C)(C)c1ccc(OP(C)(=O)O)cc1 | inactive: -8.43%
53 | COc1ccccc1OP(C)(=O)Nc1ccccc1Br (stereo not drawn) | inactive: 0.62%
54 | CP(=O)(Nc1ccc(Cl)cc1)Oc1ccc(F)cc1 (stereo not drawn) | inactive: -1.93%
55 | CN(C)C(=O)c1c([N+](=O)[O-])cc([N+](=O)[O-])cc1[N+](=O)[O-] | inactive: -7.93%
56 | CP(=O)(Nc1ccc2c(c1)OCCO2)Oc1ccccc1 (stereo not drawn) | inactive: -5.72%
57 | Cc1ccccc1NP(C)(=O)Nc1ccccc1C | inactive: -7.81%
58 | COc1ccc(OP(C)(=O)Nc2cccc(Br)c2)cc1 (stereo not drawn) | inactive: 1.72%
59 | CN(C)CCOC(=O)C(O)(c1ccccc1)C1CCCCC1 (stereo not drawn) | inactive: 6.26%
60 | COc1ccc(NP(C)(=O)Oc2ccccc2OC)cc1 (stereo not drawn) | inactive: -15.8%
61 | O=[N+]([O-])c1cc([N+](=O)[O-])c(NCC2CCS(=O)(=O)C2)c([N+](=O)[O-])c1 (stereo not drawn) | inactive: -6.99%
62 | CCOC(=O)c1ccc(NP(C)(=O)Oc2ccc(F)cc2)cc1 (stereo not drawn) | inactive: 18.9%
63 | COc1ccc(OP(C)(=O)Nc2ccc(SC(F)(F)F)cc2)cc1 (stereo not drawn) | inactive: 13.5%
64 | CCN(CC)CCCOC(=O)C(O)(c1ccccc1)C1CCCCC1 (stereo not drawn) | inactive: -8.83%
65 | CP(=O)(Nc1ccccc1)Oc1ccc(F)cc1 (stereo not drawn) | inactive: -7.04%
66 | CP(=O)(Nc1ccccc1F)Oc1ccccc1 (stereo not drawn) | inactive: -3.17%
67 | CC(C)c1ccc(OP(C)(=O)Nc2ccc(SC(F)(F)F)cc2)cc1 (stereo not drawn) | inactive: 11%
68 | O=C(OCCN1CCN(CCOCc2ccccc2)CC1)C(O)(c1ccccc1)c1ccccc1 | inactive: -6.29%
